The values below are quoted from earlier work in patent US9222055B2, “High intensity fragrances” (TAKASAGO INTERNATIONAL CORPORATION, priority 2009, dated 2015).

SMILES strings stand for the structures.

For this data set the following is noted: Table 1.

With `COc1ccc(CO)cc1` [ANISIC ALCOHOL, anisic alcohol], the Readily biodegradable result is recorded as “Yes”.
